The nature of this series: Solubility comparison in media, shaken at 37° C. for 24 h, HPLC. The protocol: The mixtures were shaken at 37° C. for 24 h and filtered through 0.45 μm aqueous-phase filter membranes. The filtrates were collected and the solubility was determined by high performance liquid chromatography. pH3, pH4, pH5 and pH6 represent acetate buffer solutions, and pH7, pH7.4, pH8 and pH9 represent phosphate buffer solutions.

For the substance cariprazine sebacate, the Solubility was above 169.7 µg/mL (Water); above 152.7 µg/mL (pH 3 acetate buffer); below 169.7 µg/mL (pH 5 acetate buffer); below 152.7 µg/mL (pH 7 phosphate buffer); below 186.7 µg/mL (pH 9 phosphate buffer).

One may read the Solubility as the concentration that dissolves in the medium under given conditions. Higher therefore signals a readily soluble substance.

The record behind these values is patent US20230355612A1 (SHANGHAI BOCIMED PHARMACEUTICAL CO., LTD., priority 2020, published 2023).
